Here are results for one compound from patent US10507209B2, “Quinazoline derivatives substituted by aniline, preparation method and use thereof” (XUANZHU PHARMA CO., LTD., priority 2010, dated 2019).

One assay concerns BT474 cells. Kind of assay: In vitro cellular inhibitory activity on BT474 mammary cancer cells (XTT). The note with it: Homo sapiens, BT-474, 72 hours. In kind it is cell-based. (In general: Tetrazolium assays rely on reduction of a dye to a coloured formazan, in cell work by metabolically active cells.)
For assay [1], the system named is SKOV-3 human-derived xenografts model in ovarian cancer. Kind of assay: In vivo pharmacodynamic evaluation, SKOV-3 human-derived xenografts model in ovarian cancer. Further details: species or system BALB/c nude mice. The note with it: 50 mg/kg oral once a day; 14 days after the administration. (In general: A xenograft is tissue or cells of one species grown in another, often human tumour cells in immunodeficient mice.)

Another assay has as its system NCI-N87 cell. Kind of assay: In vitro cellular inhibitory activity on NCI-N87 gastric carcinoma cells (XTT). It counts as cell-based. The note with it: Homo sapiens, 72 hours.

SMILES strings stand for the structures.

A word on the IC50: it is the concentration that gives 50% inhibition. For orientation: T/C means the ratio of treated to control. By TGI is commonly meant how far tumour growth fell short of that in controls. Higher therefore signals much slowing of growth. Regarding `C#Cc1cccc(Nc2ncnc3cc(OCCOC)c(OCCOC)cc23)c1` [Erlotinib, reference compound], the concentration for half-maximal inhibition (IC50) with BT474 cells is 5.43 µM. In assay [1], the T/C is 83.0%, the TGI was found to be 17.0% and the “Tumor Volume” value is reported as 1349 ± 142 mm^3. In the assay on NCI-N87 cell, this compound had an IC50 of 2.11 µM.
